AlphaSeq binding of Ab-14 light chain variants to a spike HR2 peptide

The measurements come from Li et al. 2023 (doi:10.1038/s41467-023-39022-2) through the FLAb antibody collection.

Binding partner: SARS-CoV-2 spike HR2 peptide, sequence PDVDLGDISGINAS.

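Phage display of a naive human antibody library on the peptide gave the parent. This is the validation round: designs drawn from the data on random variants, tested in the same kind of assay. Their group label is 14L_GP_Gibbs (GP: Gaussian process model; Gibbs: Gibbs sampling; a sequence that several methods proposed may carry one label only). The scFvs were displayed on barcoded MATa yeast, the peptide on MATalpha yeast. Pairs that bind mate more often; barcode pairs of the diploids are counted by sequencing. Each replicate has its own calibration line, from reference interactions of the BCL2 family. Each pool was mated in six replicate cultures.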

The variants keep the heavy chain, the linker and the frameworks of Ab-14 (scFv order VH, the linker GGGGSGGGGSGGGGS, VL).
VH: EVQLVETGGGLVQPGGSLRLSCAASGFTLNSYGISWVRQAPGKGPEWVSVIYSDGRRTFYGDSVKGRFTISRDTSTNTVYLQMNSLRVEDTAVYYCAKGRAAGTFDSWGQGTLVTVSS
VL: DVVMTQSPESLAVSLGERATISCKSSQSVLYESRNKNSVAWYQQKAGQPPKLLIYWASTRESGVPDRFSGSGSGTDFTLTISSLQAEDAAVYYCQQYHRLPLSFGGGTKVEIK

Substitutions are numbered in sequence along the VL above, starting at 1 (not Kabat).
Affinities are written as log10 Kd with Kd in nM; a lower number is a better binder.
Replicates are averaged; those with no signal do not enter the mean.
"ND" means that the variant was in the library but no mating with the target was seen in that replicate; the authors take this as a sign of poor binding, and no number exists.

changes,"log10 Kd, replicates","log10 Kd (nM), mean",signal with controls
S25F/S28E/V29Y/W56N/T59C/H98W,1.31 0.69 0.55 0.37 1.14 0.57,0.77,0/18
S26G/V29F/W56G/T59M,0.21 -0.11 -0.13 -0.20 -0.52 -0.03,-0.13,0/18
S25L/V29D/S33M/W56E/S62V,0.42 0.54 0.70 0.17 0.28 0.59,0.45,0/18
S25L/Q27S/V29H/S33E/K36D/W56S/T59Q/S62M,0.28 0.17 0.13 -0.28 0.29 0.40,0.17,0/18
S25Q/V29G/L30M/Y31M/K36Q/W56Q/E61L,0.36 0.06 0.61 0.08 0.49 0.28,0.32,0/18
S25A/S26Q/Q27N/V29Q/L30E/N35M/W56N/T59Q/S62D,0.11 0.23 0.04 -0.02 0.02 0.10,0.08,0/18
S25L/S26P/V29D/E32W/S33Q/K36S/W56N/E61F,0.29 0.05 -0.10 -0.20 -0.17 -0.02,-0.03,1/18 (1.86)
S25L/S26E/Q27P/V29E/Y31E/W56S/Q96D,0.82 0.93 0.81 0.75 0.90 0.76,0.83,1/18 (3.52)
S25V/Q27T/V29E/Y31E/N37G/T59L/S62E,0.83 0.79 0.47 0.34 0.40 0.49,0.55,1/18 (3.31)
S25L/S26Q/Q27G/V29M/S33Q/N35M/W56N/T59Q/E61M,0.54 0.26 0.44 0.49 0.39 0.66,0.46,0/18
S25L/Q27M/V29D/N35M/K36S/W56M/S62K,0.49 0.35 0.43 0.31 -0.11 0.12,0.27,2/18 (3.42)
S25L/S26D/Q27G/V29D/L30Q/W56E/Q96A,0.30 0.12 0.15 -0.03 0.11 0.42,0.18,2/18 (2.78)
S25L/V29Y/L30G/R34T/K36S/W56D/S62D,0.50 0.22 0.08 0.26 0.06 0.28,0.23,2/18 (2.36)
S25L/S26Q/S28L/V29G/S33Q/K36C/W56S/E61C,0.10 0.20 0.20 -0.04 0.04 0.25,0.13,0/18
S25I/K36W/S38A/W56E/T59Q/E61P,0.68 0.82 0.97 0.73 0.99 0.20,0.73,0/18
S25F/V29E/E32G/S33E/N35M/W56N/T59Q/E61L,0.20 0.20 0.13 -0.11 0.05 0.24,0.12,6/18 (2.70)
S25L/Q27F/V29C/N35M/K36P/W56N/E61Y,0.22 0.19 0.24 0.18 0.01 0.33,0.19,0/18
S25Y/S26E/Q27G/S28Q/V29E/Y31T/W56N/R99Q,0.82 1.11 0.78 1.06 1.01 1.06,0.97,2/18 (2.56)
S25V/V29H/L30D/W56H/E61C/Q96D,1.02 0.71 0.38 0.30 0.65 0.69,0.62,1/18 (2.65)
S25L/S26V/V29N/K36T/W56N/T59Q,0.09 0.01 0.22 0.32 0.41 0.30,0.23,1/18 (3.16)
S25L/S26M/Q27W/L30M/Y31L/E32Q/W56Q/E61M/S62E,ND 2.20 2.10 1.78 2.86 1.90,2.17,1/18 (1.76)
S25L/V29F/S33D/K36W/W56A/T59K,0.44 0.08 0.28 0.13 0.17 0.09,0.20,1/18 (2.54)
S25L/S26Q/Q27N/V29F/N35Q/W56E/T59Q/S62M,0.33 0.14 0.15 -0.17 0.14 0.23,0.14,0/18
S25L/S26M/S28E/V29W/N35L/K36A/W56N/T59Q/E61L/S62E,0.03 0.10 0.02 -0.07 0.07 0.13,0.05,3/18 (3.00)
S25L/Q27M/L30W/Y31M/E32W/W56S/S58N/S62E,0.11 0.24 -0.03 0.11 0.27 0.21,0.15,0/18
S25Y/Q27M/S28Q/V29E/Y31Q/S33Q/W56N,0.08 0.10 0.10 -0.03 0.18 0.17,0.10,1/18 (2.11)
S25L/S28G/V29W/N35E/W56N/T59Q/S62E,0.25 -0.20 -0.10 1.55 -0.29 0.08,0.21,0/18
S25L/S26P/V29D/S33Q/K36S/W56N/E61F,0.46 0.39 0.26 0.19 0.57 0.42,0.38,0/18
K24V/S25L/S26Q/Y31P/W56M/E61L,1.98 2.40 2.37 1.37 1.71 1.99,1.97,0/18
S25L/S26M/Q27Y/V29W/L30P/Y31G/W56D,-0.01 -0.07 0.08 -0.27 -0.12 0.00,-0.06,0/18
S25L/S26D/V29E/N37Q/W56N/T59Q/E61C,0.15 0.15 0.10 -0.08 0.12 0.27,0.12,2/18 (2.73)
S25V/S26Q/S28G/V29Y/L30W/S62V,1.19 1.49 0.93 1.35 0.73 1.21,1.15,1/18 (2.04)
S25L/S26Y/Q27F/V29E/L30E/W56S/S58H/T59Q,-0.04 0.09 -0.09 0.00 0.21 0.20,0.06,1/18 (2.88)
S25V/S28E/L30D/E32Q/W56D/T59Q/S62E,1.48 1.36 1.00 1.62 1.49 1.65,1.43,1/18 (2.93)
S26Q/S28G/V29M/L30D/K36D/N37A/W56A,ND 0.38 ND 0.21 1.22 0.39,0.55,0/18

Top 3 of the variants detected in all replicates, tightest first:

{"changes": "S26G/V29F/W56G/T59M", "log10 Kd, replicates": "0.21 -0.11 -0.13 -0.20 -0.52 -0.03", "log10 Kd (nM), mean": "-0.13", "signal with controls": "0/18"}
{"changes": "S25L/S26M/Q27Y/V29W/L30P/Y31G/W56D", "log10 Kd, replicates": "-0.01 -0.07 0.08 -0.27 -0.12 0.00", "log10 Kd (nM), mean": "-0.06", "signal with controls": "0/18"}
{"changes": "S25L/S26P/V29D/E32W/S33Q/K36S/W56N/E61F", "log10 Kd, replicates": "0.29 0.05 -0.10 -0.20 -0.17 -0.02", "log10 Kd (nM), mean": "-0.03", "signal with controls": "1/18 (1.86)"}

Empty control strains, which show no peptide, gave a signal in 4% of pairings with all light chain designs; the median was 2.64 and 95% of these signals were weaker than 1.59. No background was subtracted. For each scFv, signals with the empty controls are counted beside the result, with their mean in brackets.
The parent sequence was in this pool as ten entries: three were never detected, three once, and four in most replicates, with averages from 0.34 to 2.37.
In the paper, a design with two or fewer of six values counts as a poor binder.
Values of this round are not directly comparable with the first-round values of the same sequences.